This is an account of results in patent publication US4539208A, “Combination of thienamycin-type antibiotics with dipeptidase inhibitors” (Merck & Co., Inc., priority 1981, dated 1985).

This test concerns the target T1, renal dipeptidase (E.C.3.4.13.11) (Sus scrofa, UniProt P22412).
T1 construct: solubilized preparation of dipeptidase isolated from hog kidneys; from tissue; host or cells: hog (pig) kidney
T1 sequence (P22412 17-409): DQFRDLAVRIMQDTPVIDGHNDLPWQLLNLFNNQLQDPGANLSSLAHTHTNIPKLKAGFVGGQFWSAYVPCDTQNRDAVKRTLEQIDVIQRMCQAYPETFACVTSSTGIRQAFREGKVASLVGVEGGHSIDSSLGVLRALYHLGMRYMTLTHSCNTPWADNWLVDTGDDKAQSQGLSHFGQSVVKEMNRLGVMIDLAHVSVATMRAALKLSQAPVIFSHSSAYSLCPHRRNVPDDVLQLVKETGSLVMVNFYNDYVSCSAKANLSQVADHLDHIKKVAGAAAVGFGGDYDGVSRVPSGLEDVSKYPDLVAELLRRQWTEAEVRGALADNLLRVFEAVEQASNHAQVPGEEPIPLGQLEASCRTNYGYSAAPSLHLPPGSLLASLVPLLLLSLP
As to the kind of experiment: Inhibition of GDP (glycyldehydrophenylalanine) hydrolysis by solubilized renal dipeptidase. The test is classed as biochemical, hog (pig) kidney. Conditions: substrate GDP; concentration necessary to produce 50% inhibition of enzyme, calculated from multiple assays. The procedure:
This measured the ability of compounds to inhibit hydrolysis of glycyldehydrophenylalanine (GDP) by a solubilized preparation of dipeptidase isolated from hog kidneys. The procedure is as follows: to a 1 ml. system containing 50 mM "MOPS" (3-(N-morpholino)propanesulfonic acid) buffer, pH 7.1, is added 5 μg of lyophilized enzyme, and the test compound at a final concentration of 0.1 mM. After a five minute incubation at 37° C., GDP is added to a final concentration of 0.05 mM. Incubation is continued for 10 minutes, at 37° C. and hydrolysis of GDP is measured by the change in optical density with time at 275 nm. Inhibition of the enzyme is gauged by comparison to a standard run containing no inhibitor and is expressed as the inhibitor binding constant, Ki. This is the concentration of the inhibitor which achieves 50% inhibition of enzyme.
A 1 ml. system of 50 mM "MOPS" buffer, pH 7.1, is used. To this is added 5 μg of the pig renal enzyme and an amount of the test compound to bring its final concentration to 0.1 mM. After a five minute incubation at 37° C., an amount of GDP is added to bring its final concentration to 0.05 mM. The system is again incubated for 10 minutes, at 37° C. Hydrolysis of GDP is measured by its change in optical density with time at 275 nm. […]

The term Ki denotes a dissociation constant, usually derived from enzyme kinetics or from competition with a known ligand. As for `C/C=C(\NC(=O)C1CC1(C)C)C(=O)O` (racemic) [Compound 2, Z-2-(2,2-dimethylcyclopropanecarboxamido)-2-butenoic acid], the Ki was 390 nM.
On to `C/C=C(\NC(=O)C1CC1(C)C)C(=O)O` (single isomer, unassigned; (+)) [Compound 2a, (+)-Z-2-(2,2-dimethylcyclopropanecarboxamido)-2-butenoic acid], for which the Ki is 120 nM.
